# Some of the results follow.
# Test system: A. baumannii ATCC 17978
# Test: relative growth (fraction of control); higher = less inhibition
# Details: 50 µM
row,SMILES,relative growth
1,COc1ccc(S(=O)(=O)N[C@H]2CC[C@@H](CC(=O)N3CCN(c4ccccc4)CC3)O[C@@H]2CO)cc1,0.913
2,COc1ccc(S(=O)(=O)N2C[C@H](O)COC[C@@H]3O[C@@H](CC(=O)NCCN4CCCCC4)CC[C@H]32)cc1,1.18
3,Cc1cc(C)n2nc(SCC(=O)O)nc2n1,1.08
4,COc1cccc(NC(=O)N[C@@H]2CC[C@H](CC(=O)N3CCOCC3)O[C@@H]2CO)c1,1.04
5,C[C@H]1CN([C@@H](C)CO)S(=O)(=O)c2ccc(C#CC3(O)CCCC3)cc2O[C@@H]1CN(C)C(=O)Cc1cccnc1,1.12
6,C=CCC[C@@H](Cc1ccc(F)cc1)C(=O)OC[C@@H]1CCCN1C(=O)[C@H](CC=C)CC(=O)N(CCO)Cc1ccccc1,1.11
7,C[C@H](CO)N1C[C@H](C)[C@@H](CN(C)Cc2ccccc2)Oc2cc(C#Cc3ccccn3)ccc2S1(=O)=O,1.27
8,O=C(NO)c1cccc(C(=O)N/N=C/[C@H](O)[C@@H](O)[C@H](O[C@@H]2O[C@H](CO)[C@H](O)[C@H](O)[C@H]2O)[C@H](O)CO)c1,0.934
9,CN(C)CCOC(c1ccccc1)c1ccccc1.Cn1c(=O)c2[nH]c(Cl)nc2n(C)c1=O,0.893
10,O=C(C[C@@H]1C=C[C@@H](NS(=O)(=O)c2ccc(F)cc2)[C@H](CO)O1)NCCN1CCCCC1,0.961
11,COc1cc(C)c(C(=O)Oc2cc(C)c(C(=O)O)c(O)c2C)c(OC)c1C,0.905
12,COCC1=C(C(=O)OC(C)OC(=O)OC(C)C)N2C(=O)[C@@H](NC(=O)/C(=N/OC)c3csc(N)n3)[C@H]2SC1 (some centres undefined),1.27
13,Cc1cc(O)c2c(c1)C(=O)c1c(c(O)cc(O)c1-c1c(O)cc(O)c3c1C(=O)c1cc(C)cc(O)c1C3=O)C2=O,0.955
14,Cc1ccc(OCCN)c(Br)c1,0.8
15,Clc1ccc2c(c1)CCc1cccnc1C2=C1CCNCC1,0.786
16,Cl.O=C(O)/C=C/c1ccc(Cn2ccnc2)cc1,1.03
17,CC(C)NNC(=O)c1ccncc1.O=P(O)(O)O,0.896
18,Cc1csc2sc(COC(=O)Nc3ccccc3)c(C)c12,1.02
19,CC(=O)O[C@H]1CC[C@]2(C)C3CC[C@]4(C)C(C(C)=O)=CC[C@H]4C3CC[C@H]2C1 (stereo partly drawn) [3-beta-ACETOXYALLOPREG-16-EN-20-ONE],1.22
20,CC[C@H](C)[C@H](N)C(=O)O,1.04
21,CC(C)COC(=O)CNc1n[nH]c(=O)[nH]c1=O,1.12

row,SMILES,relative growth
1,Cc1noc(C)c1NC(=O)N[C@H]1C=C[C@@H](CC(=O)NCCCN(C)C)O[C@H]1CO,0.968
2,C[N+](C)(C)CCCCNC(=O)[C@H]1C[C@H]2C(=O)N[C@@H](Cc3ccccc3)C(=O)N2[C@H]1c1cccc(OCCO)c1,0.918
3,C[C@@](Cc1ccc(O)c(O)c1)(NN)C(=O)O,1.08
4,O=C1N[C@@H](Cc2c[nH]c3ccccc23)COC(=O)[C@H](Cc2ccc(F)cc2)CCC=CC[C@@H]1CC(=O)N(CCO)Cc1ccccc1,1.11
5,CCOc1nc2cccc(C(=O)O)c2n1Cc1ccc(-c2ccccc2-c2nnn[nH]2)cc1,0.868
6,Cc1c(-c2ccccc2)n(C[C@@H](O)CN)c2ccccc12,0.765
7,Cc1ccnc(NC(=O)Cn2cnc3c2c(=O)n(C)c(=O)n3C)n1,0.946
8,CNC(=O)CN1C(=O)[C@@H]2[C@@H](C1=O)[C@@H]1C=C[C@@H]2C1,0.912
9,CCN(CC)CCNc1nc(=O)[nH]nc1C,1.02
10,O=C(O)[C@@H](S)[C@@H](S)C(=O)O,0.579
11,O=c1[nH]cnc2nc[nH]c12,0.924
12,Nc1ncnc2c1ncn2[C@@H]1O[C@H](CO)[C@@H](O)[C@@H]1O,1.1
13,COc1ccc(OCCC(=O)NN)cc1,1.01
14,C=CC[C@@H](CC(=O)N[C@H](CO)Cc1ccccc1)C(=O)N[C@H](C)COC(=O)[C@H](CC=C)CC(=O)OC(C)(C)C,1.01
15,NNc1ccc2c(N)[nH]nc2c1,0.93
16,CCc1nnc(SCC(=O)OC)[nH]1,1
17,NC(CO)(CO)CO.O=C(c1ccccc1)c1ccc2n1CCC2C(=O)O (centres undefined),1.07
18,CNCCC(Oc1ccc(C(F)(F)F)cc1)c1ccccc1.Cl (centres undefined),1.11
19,C=CC[C@H](Nc1ccccc1C)c1ccc(Cl)cc1,1.11
20,CC(=O)N(O)CCCCCNC(=O)CCC(=O)N(O)CCCCCNC(=O)CCC(=O)N(O)CCCCCN.CS(=O)(=O)O,0.983
21,C[C@H]1CN([C@@H](C)CO)S(=O)(=O)c2ccc(C3=CCCC3)cc2O[C@@H]1CN(C)S(=O)(=O)c1cn(C)cn1,0.989

row,SMILES,relative growth
1,C[C@@H]1CN([C@H](C)CO)C(=O)c2cc(C#Cc3ccccn3)cnc2O[C@H]1CN(C)C(=O)c1cnccn1,1.05
2,CC(C)(C)OC(=O)N1CC(=O)C1,1.04
3,O=S(=O)(OC[C@H]1O[C@@](COS(=O)(=O)[O][Al]([OH])[OH])(O[C@H]2O[C@H](COS(=O)(=O)[O][Al]([OH])[OH])[C@@H](OS(=O)(=O)[O][Al]([OH])[OH])[C@H](OS(=O)(=O)[O][Al]([OH])[OH])[C@H]2OS(=O)(=O)[O][Al]([OH])[OH])[C@@H](OS(=O)(=O)[O][Al]([OH])[OH])[C@@H]1OS(=O)(=O)[O][Al]([OH])[OH])[O][Al]([OH])[OH].[OH][Al]([OH])[OH].[OH][Al]([OH])[OH].[OH][Al]([OH])[OH].[OH][Al]([OH])[OH].[OH][Al]([OH])[OH].[OH][Al]([OH])[OH].[OH][Al]([OH])[OH].[OH][Al]([OH])[OH],0.903
4,COC(=O)[C@@H]1[C@@H](c2ccc(OC)cc2)[C@H](C(=O)OC)S(=O)(=O)CS1(=O)=O,1.09
5,C(=C\N1CCN(C(c2ccccc2)c2ccccc2)CC1)/Cc1ccccc1,0.904
6,O=C(N[C@@H]1CC=CC[C@H](CC(=O)N(CCO)Cc2ccccc2)C(=O)N[C@@H](Cc2ccccc2)COC1=O)OCC1c2ccccc2-c2ccccc21,1.09
7,O=C(C[C@@H]1C=C[C@@H](NC(=O)C2CC2)[C@H](CO)O1)NCCCN1CCOCC1,1.14
8,C[C@@H]1C(=O)O[C@H]2CC34[C@H]5CC(C(C)(C)C)C36[C@@H](OC(=O)[C@@H]6O)OC4(C(=O)O5)[C@]21O (some centres undefined),0.924
9,CCC1(c2ccccc2)C(=O)NCNC1=O,1.23
10,O=C(O)CCCCCCCCCCCCC1C=CCC1 (centres undefined),1.35
11,Cc1noc(C)c1NC(=O)N(C)C[C@@H]1Oc2cc(C#CCN(C)C)ccc2S(=O)(=O)N([C@@H](C)CO)C[C@@H]1C,1.07
12,O=C(C[C@H]1C=C[C@H](NC(=O)CN2CCOCC2)[C@H](CO)O1)NCCc1ccncc1,1.15
13,C[C@@H]1CN([C@H](C)CO)S(=O)(=O)c2ccc(Br)cc2O[C@H]1CN(C)S(=O)(=O)c1ccccc1,1.07
14,CNC(=O)c1ccc(OC(C)=O)cc1,1.04
15,C[C@@H]1CN([C@@H](C)CO)S(=O)(=O)c2ccc(C#CC3CCCC3)cc2O[C@H]1CN(C)Cc1cncnc1,1.01
16,O=c1[nH]nc(N2CCOCC2)c(=O)[nH]1,0.895
17,COc1cc(/C=C/C(=O)/C=C(O)/C=C/c2ccc(O)c(OC)c2)ccc1O,0.926
18,COc1cc2c(cc1OC)CN(C(=O)[C@@H]1[C@H]3C(=O)O[C@H](c4ccccc4)[C@H](c4ccccc4)N3[C@H](c3ccc(O)cc3)[C@@]13C(=O)Nc1ccccc13)CC2,0.916
19,O=c1[nH]c(=O)n(C2C[C@@H](O)[C@@H](CO)O2)cc1F (some centres undefined),1.16
20,O=S1(=O)CC[C@H](S(=O)(=O)[C@H]2CCS(=O)(=O)C2)C1,1.1
21,COCC#Cc1ccc2c(c1)O[C@@H](CN(C)S(=O)(=O)c1ccc(F)cc1)[C@H](C)CN([C@H](C)CO)S2(=O)=O,0.878

row,SMILES,relative growth
1,c1ccc2c(CSc3nc4ccccc4o3)cccc2c1,1.09
2,CO[C@@H]1CN(C)C(=O)c2cc(NS(=O)(=O)c3ccccc3)ccc2OC[C@H](C)N(C(=O)NC(C)C)C[C@@H]1C,0.996
3,O=C1CC[C@@H](C(=O)N2CSC[C@H]2C(=O)O)N1,0.937
4,Oc1c(Cl)cc(Cl)c2cccnc12,0.571
5,c1ccc(-c2ccc(C(c3ccccc3)n3ccnc3)cc2)cc1 (centres undefined),1.14
6,COCC#Cc1ccc2c(c1)O[C@@H](CN(C)Cc1ccccc1F)[C@@H](C)CN([C@H](C)CO)S2(=O)=O,0.745
7,O=C(C[C@@H]1C=C[C@@H](NC(=O)c2cccnc2)[C@@H](CO)O1)NCc1ccncn1,0.893
8,O=C(C[C@H]1CC[C@@H]2[C@H](COC[C@@H](O)CN2Cc2cc(F)ccc2F)O1)N[C@H]1CCN(Cc2ccccc2)C1,0.977
9,CCCC#Cc1ccc2c(c1)O[C@H](CN(C)S(=O)(=O)c1cccc(OC)c1)[C@@H](C)CN([C@H](C)CO)S2(=O)=O,1.37
10,NCC[C@H]1CC[C@@H](NC(=O)C2CC2)[C@H](CO)O1,0.989
11,O=C(C[C@H]1C=C[C@H](NC(=O)CN2CCOCC2)[C@H](CO)O1)NC1CCC1,1.05
12,CNC[C@@H](O)CS(=O)(=O)c1ccccc1,1.02
13,N=C(N)Nc1nc(=O)c2ccccc2s1,0.945
14,CC(C)(C)[S@@](=O)N1Cc2cc(C(=O)N[C@@H]3CCN(Cc4ccccc4)C3)nc(-c3cccc(-c4cccnc4)c3)c2[C@H]1CCO,0.829
15,NC(=O)c1ncn(C2O[C@H](CO)[C@@H](O)[C@H]2O)c1N (some centres undefined),0.943
16,O=C(C[C@H]1C=C[C@H](NC(=O)Nc2ccc3c(c2)OCO3)[C@@H](CO)O1)NCCCN1CCOCC1,1.22
17,C[C@H](O)C#Cc1ccc2c(c1)O[C@H](CN(C)C(=O)Nc1ccccc1)[C@@H](C)CN([C@H](C)CO)S2(=O)=O,0.906
18,CC(=O)c1ccc2c(c1)N(CCCN1CCN(CCO)CC1)c1ccccc1S2.O=C(O)/C=C\C(=O)O,0.929
19,CN(C)CCN(Cc1ccccc1)c1ccccn1.O=C(O)CC(O)(CC(=O)O)C(=O)O,1.15
20,C[C@H]1CN([C@@H](C)CO)S(=O)(=O)c2ccc(C#CC3CC3)cc2O[C@@H]1CN(C)Cc1ccccc1F,1.51
21,CCNC(=O)C[C@@H]1CC[C@H]2[C@@H](COC[C@@H](O)CN2C(=O)Nc2c(C)noc2C)O1,0.881

# Reference: published antibiotic growth screens (doi:10.1038/s41589-023-01349-8)
